The values that follow come from PubChem BioAssay AID1229 (Sanford-Burnham Center for Chemical Genomics, 2008).

The entries are a selection whose mix differs from that of the whole data set. Activity calls are given as the source filed them.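 Rule for the calls: active = diaphorase activity raised at least twofold by the compound at 20 µM; inactive = activation factor below 2.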

A short description of the assay: compounds boosting diaphorase resazurin reduction – biochemical, uHTS, resorufin fluorescence, counter-screen for diaphorase-coupled primary assays, primary screen (AID 1229). The conditions noted are these: Diaphorase/resazurin coupled assay, 16 min, at 20 µM; stronger effect = higher value, 1 = vehicle wells, 0 = NADH-free wells. Summed up: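 Material: Purified diaphorase enzyme from Clostridium kluyveri | Buffer or medium: 50 mM HEPES pH 7.4 with 4.542 mM MgCl2, 0.005% Tween 20 | Times: 16 min enzyme reaction, ambient temperature | Signal: Red resorufin fluorescence at 544/590 nm excitation/emission | Measure: Increased resorufin signal from activators or reducing compounds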
Background: Alamar Blue is a resazurin reagent that responds to reducing activity.
As to `CCN1CCC(Nc2cccc(F)c2)CC1`, the activation factor was inactive: 0.8. `CN(C)c1ccc(C(=O)NCC2(N3CCCCC3)CCCCC2)cc1`: the activation factor is inactive: 1. In the case of `Fc1ccccc1NC1CCN(Cc2ccccc2)CC1` it was inactive: 0.8. For the molecule `COc1cc(OC)cc(C(=O)NCC2(N3CCOCC3)CCCCC2)c1`, the activation factor is inactive: 1.

With `CCC(CO)(C(=O)OC1CN2CCC1CC2)c1ccccc1` (stereo not given), the activation factor result is “inactive”. As to `CCOc1ncccc1C(=O)NCC1(N2CCOCC2)CCCCC1`, the activation factor entry was “inactive”. Consider `CC(C)(C)OC(=O)N1CCC(Nc2ccccc2)CC1`, for which the activation factor was inactive: 1. In the case of `N/C(=N\O)c1c(N)no[n+]1[O-]` it was inactive: 1. In the case of `O=C(OC1CN2CCC1CC2)C1c2ccccc2C=Cc2ccccc21` (stereo not given) it was inactive: 1.

Turning to `COc1ccc(C(=O)NCC2(N3CCOCC3)CCCCC2)cc1OC`, the activation factor is inactive: 1.

With `c1ccc(CN2CCC(Nc3ccccc3)CC2)cc1`, the activation factor was inactive: 0.8. In the case of `N#Cc1ccc(C(=O)NCC2(N3CCCCC3)CCCCC2)cc1` it was inactive: 1. In the case of `O=C(NCC1(N2CCOCC2)CCCCC1)c1cc(=O)[nH]c2ccccc12` it was inactive: 1; in that of `COc1ccc(NC2CCN(C(=O)OC(C)(C)C)CC2)cc1`, “inactive”. In the case of `CN1CCN(CCOC(=O)C(O)(c2ccccc2)c2ccccc2)CC1` it was “inactive”. As for `N#CC1(Nc2ccccc2)CCN(CCc2ccccc2)CC1`, the activation factor is inactive: 1.

Consider `O=C(NCC1(N2CCCCC2)CCCCC1)c1cccc([N+](=O)[O-])c1`, for which the activation factor is inactive: 1.

`CC(C)c1ccc(NC2CCN(C(=O)OC(C)(C)C)CC2)cc1`: the activation factor is inactive: 0.8.

As for `COc1ccc(CN(CCCl)CCCl)cc1Cl`, the activation factor is inactive: 1.1.

For the molecule `CN(C)c1cccc(C(=O)NCC2(N3CCCCC3)CCCCC2)c1`, the activation factor result was “inactive”. In the case of `O=C(NCC1(N2CCOCC2)CCCCC1)c1cc2ccccc2o1` it was “inactive”; in that of `O=C(OC1CN2CCC1CC2)C1c2ccccc2Oc2ccccc21` (stereo not given), inactive: 0.8.

`CCOC(=O)N1CCC(Nc2ccc(OC)cc2)CC1`: the activation factor is inactive: 1.

Consider `COc1ccc(C(=O)NCC2(N3CCCCC3)CCCCC2)c(OC)c1OC`, for which the activation factor was inactive: 1.1.

`COc1ccc(NC2CCN(CCc3ccccc3)CC2)c(OC)c1`: the activation factor is inactive: 0.7.
